According to patent US20090304692A1, “TRIAZINE COMPOUNDS AS PI3 KINASE AND MTOR INHIBITORS” (Wyeth, priority 2008, published 2009):
Values joined by “and” are separate entries in the source; they are usually repeats but may differ in a detail not shown here. Equal entries are not always repeated. Where two headings read alike, the source gives them in different places.

Amino acid sequences for entries named in this document (tags omitted).
UniProt P42336, whole entry, species assumed: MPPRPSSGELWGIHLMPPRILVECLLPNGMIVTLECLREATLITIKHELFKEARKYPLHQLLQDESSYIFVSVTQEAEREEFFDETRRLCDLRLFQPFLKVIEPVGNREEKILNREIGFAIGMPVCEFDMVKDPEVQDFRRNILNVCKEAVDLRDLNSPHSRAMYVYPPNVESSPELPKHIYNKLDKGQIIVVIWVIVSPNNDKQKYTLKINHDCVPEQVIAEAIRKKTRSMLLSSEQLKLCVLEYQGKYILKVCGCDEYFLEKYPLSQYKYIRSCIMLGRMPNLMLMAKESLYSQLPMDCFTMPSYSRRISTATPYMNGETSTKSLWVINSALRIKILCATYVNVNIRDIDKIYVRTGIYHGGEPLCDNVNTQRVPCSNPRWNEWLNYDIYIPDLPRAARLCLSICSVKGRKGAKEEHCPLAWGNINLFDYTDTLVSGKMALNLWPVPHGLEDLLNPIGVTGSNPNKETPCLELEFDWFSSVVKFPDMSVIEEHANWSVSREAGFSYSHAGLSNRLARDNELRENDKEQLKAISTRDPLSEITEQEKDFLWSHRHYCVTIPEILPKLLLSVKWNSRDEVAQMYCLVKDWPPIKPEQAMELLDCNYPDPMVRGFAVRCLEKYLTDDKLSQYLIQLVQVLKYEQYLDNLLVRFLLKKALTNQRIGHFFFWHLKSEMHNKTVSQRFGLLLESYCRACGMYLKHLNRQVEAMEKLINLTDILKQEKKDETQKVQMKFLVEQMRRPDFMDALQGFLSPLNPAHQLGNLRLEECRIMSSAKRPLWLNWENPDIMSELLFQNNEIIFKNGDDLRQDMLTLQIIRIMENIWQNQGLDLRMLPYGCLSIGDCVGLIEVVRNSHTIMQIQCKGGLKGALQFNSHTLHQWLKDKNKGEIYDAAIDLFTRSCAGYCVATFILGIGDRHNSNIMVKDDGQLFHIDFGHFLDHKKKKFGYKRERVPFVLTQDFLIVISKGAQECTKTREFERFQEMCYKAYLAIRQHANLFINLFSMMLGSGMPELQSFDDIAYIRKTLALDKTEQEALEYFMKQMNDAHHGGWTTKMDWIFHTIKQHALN
UniProt P48736, whole entry, species assumed: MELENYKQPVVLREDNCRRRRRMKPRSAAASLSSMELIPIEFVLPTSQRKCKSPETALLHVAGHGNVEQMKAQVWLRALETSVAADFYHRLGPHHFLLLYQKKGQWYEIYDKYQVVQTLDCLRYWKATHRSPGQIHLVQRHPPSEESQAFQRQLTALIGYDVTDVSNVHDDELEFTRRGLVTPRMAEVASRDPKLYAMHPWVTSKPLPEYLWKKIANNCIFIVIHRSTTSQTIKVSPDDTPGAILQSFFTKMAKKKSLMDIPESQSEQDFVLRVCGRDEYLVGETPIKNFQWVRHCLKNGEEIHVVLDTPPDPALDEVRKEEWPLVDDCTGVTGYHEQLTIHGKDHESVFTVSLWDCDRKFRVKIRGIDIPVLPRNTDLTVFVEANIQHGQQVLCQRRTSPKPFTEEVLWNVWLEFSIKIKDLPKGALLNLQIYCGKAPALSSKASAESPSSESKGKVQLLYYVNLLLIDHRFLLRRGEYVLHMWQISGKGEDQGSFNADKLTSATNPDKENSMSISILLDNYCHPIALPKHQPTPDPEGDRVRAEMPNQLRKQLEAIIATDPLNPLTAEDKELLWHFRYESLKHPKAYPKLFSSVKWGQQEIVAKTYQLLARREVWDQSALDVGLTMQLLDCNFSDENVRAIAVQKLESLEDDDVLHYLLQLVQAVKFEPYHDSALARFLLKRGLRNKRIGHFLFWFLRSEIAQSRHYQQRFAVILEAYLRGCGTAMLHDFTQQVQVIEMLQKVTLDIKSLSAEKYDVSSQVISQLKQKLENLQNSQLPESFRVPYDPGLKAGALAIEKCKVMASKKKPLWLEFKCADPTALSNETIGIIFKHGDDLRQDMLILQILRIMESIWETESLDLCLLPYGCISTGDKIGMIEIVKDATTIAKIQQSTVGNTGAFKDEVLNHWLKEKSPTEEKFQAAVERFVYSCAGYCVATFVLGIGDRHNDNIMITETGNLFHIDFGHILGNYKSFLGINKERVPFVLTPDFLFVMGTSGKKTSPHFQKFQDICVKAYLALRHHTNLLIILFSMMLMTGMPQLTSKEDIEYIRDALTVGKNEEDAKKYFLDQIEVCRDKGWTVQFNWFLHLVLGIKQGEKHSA

What was measured:
[1] = system: human breast MDA-MB-361 tumor cell line; assay: In vitro cell culture growth assay (MTS), MDA-MB-361; type: cell-based
[2] = molecular target: PI3K-α (Homo sapiens, UniProt P42336); assay: PI3K-alpha fluorescence polarization assay; settings: read-out: IC50 PI3Kα
[3] = molecular target: PI3K-γ (Homo sapiens, UniProt P48736); assay: PI3K-gamma fluorescence polarization assay; settings: read-out: IC50 PI3Kγ
[4] = molecular target: Human mTOR (FLAG-TOR) (Homo sapiens, UniProt P42345); assay: mTOR kinase assay (DELFIA format, purified enzyme); type: biochemical

CNC(=O)c1ccc(NC(=O)Nc2ccc(-c3nc(N4CCOCC4)nc(N4CCOCC4)n3)cc2)cc1 [Example 70, 4-(3-(4-(4,6-dimorpholino-1,3,5-triazin-2-yl)phenyl)ureido)-N-methylbenzamide]
IC50 ([1]; Homo sapiens, MDA-MB-361, 72 h, read-out: IC50 MDA-MB-361, MTS cell growth assay, three days after drug treatment): 19 nM
IC50 [2]: 2 nM

COc1nc(-c2ccc(NC(=O)Nc3ccc(C(=O)NCCN4CCCCC4)cc3)cc2)nc(N2CCOCC2)n1 [Example 248, 4-({[4-(4-methoxy-6-morpholin-4-yl-1,3,5-triazin-2-yl)phenyl]carbamoyl}amino)-N-(2-piperidin-1-ylethyl)benzamide]
IC50 [3]: 18 nM
IC50 [4]: 6.4 nM and 8.2 nM

N-[2-(dimethylamino)ethyl]-4-({[4-(4-morpholin-4-yl-6-piperidin-1-yl-1,3,5-triazin-2-yl)phenyl]carbamoyl}amino)benzamide [Example 601]
IC50 ([1]; MTS cell growth assay, three days after drug treatment, MDA-MB-361 cells, read-out: IC50 MDA-MB-361): 22 nM
